Amino acid sequences for entries named in this document (tags omitted). Residues count along the entry.
UniProt P05106, 27-788 limits assumed: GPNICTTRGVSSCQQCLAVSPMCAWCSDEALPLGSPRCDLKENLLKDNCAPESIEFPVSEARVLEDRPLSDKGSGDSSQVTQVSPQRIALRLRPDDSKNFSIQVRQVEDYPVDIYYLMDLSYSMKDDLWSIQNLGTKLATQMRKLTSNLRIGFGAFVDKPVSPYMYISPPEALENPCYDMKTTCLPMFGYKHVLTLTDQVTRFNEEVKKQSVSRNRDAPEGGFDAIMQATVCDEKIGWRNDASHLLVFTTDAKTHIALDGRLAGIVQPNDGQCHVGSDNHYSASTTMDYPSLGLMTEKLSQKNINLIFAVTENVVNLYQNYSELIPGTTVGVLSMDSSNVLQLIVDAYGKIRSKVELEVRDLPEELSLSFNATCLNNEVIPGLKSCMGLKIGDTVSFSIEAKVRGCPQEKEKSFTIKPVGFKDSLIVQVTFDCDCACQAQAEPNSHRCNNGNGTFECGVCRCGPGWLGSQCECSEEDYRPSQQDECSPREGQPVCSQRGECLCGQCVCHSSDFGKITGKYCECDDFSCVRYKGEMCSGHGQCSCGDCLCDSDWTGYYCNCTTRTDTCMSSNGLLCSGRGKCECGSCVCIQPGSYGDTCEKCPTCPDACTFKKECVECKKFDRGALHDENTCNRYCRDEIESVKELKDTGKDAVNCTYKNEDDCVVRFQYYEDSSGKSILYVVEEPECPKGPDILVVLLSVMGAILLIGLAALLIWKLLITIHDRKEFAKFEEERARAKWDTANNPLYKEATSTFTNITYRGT
UniProt P06756, 31-889 limits assumed: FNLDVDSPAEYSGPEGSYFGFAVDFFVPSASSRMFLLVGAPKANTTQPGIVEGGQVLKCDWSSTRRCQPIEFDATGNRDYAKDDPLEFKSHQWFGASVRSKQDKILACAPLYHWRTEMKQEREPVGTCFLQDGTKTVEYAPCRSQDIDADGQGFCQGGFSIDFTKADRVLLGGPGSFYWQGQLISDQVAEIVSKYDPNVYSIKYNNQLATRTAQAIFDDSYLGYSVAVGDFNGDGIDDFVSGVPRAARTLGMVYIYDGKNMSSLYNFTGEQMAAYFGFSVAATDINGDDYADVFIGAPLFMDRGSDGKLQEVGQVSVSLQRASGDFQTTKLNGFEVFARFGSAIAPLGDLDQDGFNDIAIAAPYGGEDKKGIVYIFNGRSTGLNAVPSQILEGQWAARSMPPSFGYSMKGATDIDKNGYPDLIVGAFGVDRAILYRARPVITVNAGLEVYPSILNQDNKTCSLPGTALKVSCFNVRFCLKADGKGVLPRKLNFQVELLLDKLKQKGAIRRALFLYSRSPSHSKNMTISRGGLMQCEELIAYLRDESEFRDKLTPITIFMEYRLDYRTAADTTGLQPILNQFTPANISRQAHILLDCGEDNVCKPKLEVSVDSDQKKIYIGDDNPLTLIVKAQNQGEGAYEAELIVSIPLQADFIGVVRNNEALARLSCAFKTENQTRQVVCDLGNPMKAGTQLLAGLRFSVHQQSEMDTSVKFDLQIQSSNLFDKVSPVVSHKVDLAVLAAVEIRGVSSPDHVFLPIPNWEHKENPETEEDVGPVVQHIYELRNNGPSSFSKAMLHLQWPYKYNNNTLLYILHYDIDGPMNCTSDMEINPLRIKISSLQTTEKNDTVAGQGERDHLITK
UniProt P06756, 891-1048 partner limits assumed: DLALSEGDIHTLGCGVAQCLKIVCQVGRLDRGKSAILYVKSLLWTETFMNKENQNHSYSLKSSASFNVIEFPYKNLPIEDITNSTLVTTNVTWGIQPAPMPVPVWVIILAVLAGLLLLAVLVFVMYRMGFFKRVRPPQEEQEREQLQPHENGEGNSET
UniProt P08514, 32-887 limits assumed: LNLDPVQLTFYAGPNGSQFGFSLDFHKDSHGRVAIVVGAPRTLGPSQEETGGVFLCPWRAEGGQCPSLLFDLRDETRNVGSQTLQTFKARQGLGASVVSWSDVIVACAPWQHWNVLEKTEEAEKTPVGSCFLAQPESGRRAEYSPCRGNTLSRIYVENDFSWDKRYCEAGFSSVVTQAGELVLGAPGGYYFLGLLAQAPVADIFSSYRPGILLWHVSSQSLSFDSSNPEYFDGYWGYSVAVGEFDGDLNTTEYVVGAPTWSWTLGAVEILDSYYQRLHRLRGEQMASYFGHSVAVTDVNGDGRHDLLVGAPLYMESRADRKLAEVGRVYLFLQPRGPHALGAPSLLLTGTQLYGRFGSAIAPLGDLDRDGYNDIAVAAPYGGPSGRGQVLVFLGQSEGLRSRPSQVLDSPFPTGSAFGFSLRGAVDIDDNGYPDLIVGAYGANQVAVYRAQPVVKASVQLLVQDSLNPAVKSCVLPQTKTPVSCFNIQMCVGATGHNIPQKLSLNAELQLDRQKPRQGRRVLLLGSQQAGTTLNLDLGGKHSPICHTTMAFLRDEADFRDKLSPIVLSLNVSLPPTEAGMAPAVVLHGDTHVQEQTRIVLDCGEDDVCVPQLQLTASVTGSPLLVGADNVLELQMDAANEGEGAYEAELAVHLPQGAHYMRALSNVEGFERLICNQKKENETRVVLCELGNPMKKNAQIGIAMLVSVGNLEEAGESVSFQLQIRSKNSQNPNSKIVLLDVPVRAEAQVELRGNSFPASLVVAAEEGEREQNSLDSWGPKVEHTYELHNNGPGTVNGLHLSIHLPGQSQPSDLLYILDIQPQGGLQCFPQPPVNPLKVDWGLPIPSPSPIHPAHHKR
UniProt P08514, 891-1039 partner limits assumed: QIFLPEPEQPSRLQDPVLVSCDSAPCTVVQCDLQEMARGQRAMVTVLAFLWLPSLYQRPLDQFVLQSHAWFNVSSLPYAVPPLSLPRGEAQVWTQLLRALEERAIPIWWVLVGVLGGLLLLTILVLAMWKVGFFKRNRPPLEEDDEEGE

According to patent US6552079B2, “Integrin antagonists” (Eli Lilly and Company, priority 1996, dated 2003):

Columns and labels:
[1] = tested on: ADP-induced aggregation of human platelets (PRP); assay: Platelet aggregation assay (Aggregation-Human/PRP/ADP); conditions: read-out: PRP (IC50 μM); human platelet rich plasma, ADP 20 μM
Procedure: In addition to the ELISA integrin binding assays described above, the Aggregation-Human/PRP/ADP Assay is useful for evaluating therapeutic compounds.
Platelet rich plasma (PRP) is prepared from healthy human volunteers for use in determining inhibition of platelet aggregation by compounds. Blood was collected via a 21 gauge butterfly cannula, using a two-syringe technique into 1/10 volume of […] trisodium citrate.
Platelet rich plasma was prepared at room temperature by centrifugation of the citrated whole blood at 100×g for 15 minutes. The PRP contained approximately 200-400,000 platelets/μl. Platelet poor plasma was prepared by centrifugation of citrated whole blood at 12,000×g for 2 minutes.
Platelet aggregation was assayed in a Chrono-log whole blood aggregometer (Chrono-log Corporation, Havertown, Pa.) using the PRP prepared above according to the manufacturers directions. Inhibition of platelet aggregation was studied by adding varying amounts of test materials followed by adenosine diphosphate (ADP, 20 μM) to stirred human PRP. Specifically, the human PRP was incubated with the compound for 1-2 min. at 37° C. prior to addition of the aggregating agent ADP.

[2] = target: vitronectin receptor, αvβ3 (Homo sapiens, UniProt P05106+P06756); assay: αvβ3 ELISA purified integrin binding assay (vitronectin binding); conditions: read-out: αvβ3 ELISA (IC50 μM); inhibition of biotinylated vitronectin binding to immobilized purified αvβ3
Procedure: (§1) In the following assays, GPIIb-IIIa and vitronectin receptor, αvβ3 were prepared in purified form, by methods described in Fitzgerald, L. A., et al., Anal Biochem (1985) 151: 169-177 and Smith, J. W., J. Biol Chem (1988) 263: 18726-18731 (the disclosure of which is incorporated herein by reference). GPIIb-IIIa or vitronectin receptor, αvβ3, are coated onto microtiter plates. The coated support is then contacted with fibrinogen for the GPIIb-IIIa assay, or is contacted with vitronectin for the vitronectin receptor, αvβ3 and with test materials and incubated for sufficient time to reach maximal ligand binding to immobilized integrins. The adhesive ligands fibrinogen or vitronectin were typically provided at a concentration of 2-50 nM and the test material can, if desired, be added at a series of diultions. Typical incubations were 2-4 hr at 25° C., the time and temperature being interdependent.
(§2) Purified platelet GPIIb-IIIa was prepared by Fitzgerald, L. A., et al., Anal Biochem 151:169-177 (1985). Vitronectin receptor, αvβ3, was prepared as described by Smith, J. W., J. Biol Chem (1988) 263: 18726-18731. After purification, the receptors were each stored in 0.1% Triton X-100 at 0.1-1.0 mg/ml.
(§3) The receptors were coated to the wells of 96-well flat-bottom enzyme-linked immunoassay (ELISA) plates (Linbro EIA-Plus microtiter plate, Flow Laboratories) after diluting 1:200 with a solution of 20 mM Tris-HCl, 150 mM NaCl, 1 mM CaCl2, pH 7.4 to reduce the Triton X-100 concentration to below its critical micellar concentration and adding an aliquot of 100 μl to each well. The wells were allowed to incubate overnight at 4° C., and then aspirated to dryness. Additional sites were blocked by the addition of bovine serum albumin (BSA) at 35 mg/ml in the above buffer for 2 hr at 30° C. to prevent non-specific binding. The wells were then washed once with binding buffer ([…] Tris-HCl, 100 mM NaCl, 2 mM CaCl2, 1 mg/ml BSA).
(§4) The corresponding ligands (fibrinogen, von Willebrand Factor, or vitronectin) were conjugated to biotin using commercially available reagents and standard protocols. The labeled ligands were added to the receptor-coated wells at a final concentration of 2-10 nM (100 μl/well) and incubated for 3 hr at 25° C. in the presence or absence of test samples. After incubation, the wells were aspirated to dryness and bound ligand containing biotin label was quantitated.
(§5) The bound protein was detected by the addition of anti-biotin antibody conjugated to alkaline phosphatase followed by addition of substrate (p-nitrophenyl […] phosphate), and determination of the optical density of each well at […].

GPIIb-IIIa = GPIIb-IIIa (Homo sapiens, UniProt P05106+P08514); assay: GPIIb-IIIa ELISA purified integrin binding assay (fibrinogen binding); conditions: read-out: GPIIbIIIa ELISA (IC50 μM); inhibition of biotinylated fibrinogen binding to immobilized purified platelet GPIIb-IIIa
Procedure: as §1, §2, §3, §4, §5

Row | Structure (SMILES) | IC50 [1] [µM] | IC50 [2] [µM] | IC50 (GPIIb-IIIa) [µM]
1 | CCCCS(=O)(=O)NC(CNC(=O)CCNC(=O)CCCCNC(=N)N)C(=O)O (stereo not drawn) | 4.9 | 50 | 1
2 | O=C(CCNC(=O)C1CCNCC1)NCC(NS(=O)(=O)c1ccccc1)C(=O)O (stereo not drawn) | 1.1 | > 100 | 0.1
3 | CCCCS(=O)(=O)NC(CNC(=O)CCNC(=O)CCNC(=N)N)C(=O)O (stereo not drawn) | 67.1 | > 100 | 50
4 | N=C(N)NCCCCCCCC(=O)NCC(NS(=O)(=O)Cc1ccccc1)C(=O)O (stereo not drawn) | 5.7 | 3 | 0.6
5 | N=C(N)NCCCC(=O)N1CCC(C(=O)NCC(NS(=O)(=O)c2ccccc2)C(=O)O)CC1 (stereo not drawn) | 1 | 5 | 2.5
6 | N=C(N)NCCCCCCCC(=O)NCC(NS(=O)(=O)c1ccccc1)C(=O)O (stereo not drawn) | 0.17 | 0.1 | 0.02
7 | N=C(N)NCCCC(=O)NCCC(=O)NCC(NS(=O)(=O)c1ccccc1)C(=O)O (stereo not drawn) | 0.26 | 0.3 | 0.1
8 | Cc1ccc(S(=O)(=O)NC(CNC(=O)CCCCCCCNC(=N)N)C(=O)O)cc1 (stereo not drawn) | 0.85 | 0.2 | 0.1
9 | CCCCS(=O)(=O)NC(CNC(=O)CCNC(=O)CNC(=N)N)C(=O)O (stereo not drawn) | 120 | > 200 | > 100
10 | N=C(N)NCCC(=O)N1CCC(C(=O)NCC(NS(=O)(=O)c2ccccc2)C(=O)O)CC1 (stereo not drawn) | 3.3 | 0.5 | 2.5
